Data on 81 compounds can be found in PubChem BioAssay AID504648 (National Center for Advancing Translational Sciences (NCATS), 2011).

The entries are a selection whose mix differs from that of the whole data set. Results filed as inconclusive are left out. The source made the active and inactive calls. The call rests on the fitted dose curve; in most records, active means well fitted inhibition curve with a large enough effect; inconclusive means small, poorly fitted or top-dose-only effect, or effect the other way, or another doubt; inactive means no such curve, though single readings can be large or run the other way.
On the % scale 0 is the no-effect control and ±100 the full control effect; potency means the concentration at half of the fitted maximal effect.

This experiment in a line: Nrf2 qHTS screen for inhibitors: counterscreen for cytotoxicity. Conditions: A549 ARE-Fluc cells, CellTiter-Fluor viability, 18-24 h; series mostly up to 46 µM; activity change, negative = cytotoxicity: at the top concentration. Put shortly:
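A549 ARE_Fluc cells in 5% FBS OPTI-MEM were exposed to compounds in concentration-response for 18-24 h at 37 deg C. Viability was read by CellTiter-Fluor fluorescence (Ex 405/Em 525) after 30 min, before the luciferase read.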
As for `COc1cc(C(=O)NCC2(N3CCOCC3)CCCCC2)ccc1OCC(C)C`, the “activity change, negative = cytotoxicity” value was inactive: -11.1%.
As for `CCN(N=Nc1nonc1N)c1nonc1N`, the “activity change, negative = cytotoxicity” value was inactive: 2.66%.
Still for that read-out and setting: then `Nc1cccc2ccc([As](=O)(O)O)cc12`, with inactive: -3.29%; and `Cc1cc(SC(NC(=O)c2ccc(F)cc2)C(Cl)(Cl)Cl)ncn1` (stereo unspecified), with inactive: -2.68%.
The same measure, in the same setting: the result for `CCOP(=O)(Nc1ccccc1)OCC` reads inactive: -1.16%.
Take `Cc1ccc(NP(=O)(Oc2ccccc2F)Oc2ccccc2F)nc1`: the “activity change, negative = cytotoxicity” value was inactive: 7.25%.
Still for that read-out and setting: the result for `CN(C(=O)Cc1ccc(Cl)c(Cl)c1)[C@H]1CCCC[C@@H]1N1CCCC1` reads inactive: -0.461%; that for `CC(=O)Nc1ccc([As](=O)(O)O)cc1`, inactive: 0.481%; that for `O=C(O)c1ccccc1[As](=O)(O)O`, inactive: -7.13%.
Regarding `CCCC1OP(N)(=O)OCC1CC` (stereo unspecified), the “activity change, negative = cytotoxicity” value was inactive: -2.46%.
In the case of `CC(=O)O[C@H]1C[C@@H]2OC3C=C(C)CCC3(C)[C@@]1(C)[C@@]21CO1` (stereo partly specified), the Potency was active: 5800 nM.
As for `O=P(Nc1nc2ccc(Cl)cc2s1)(c1ccccc1)c1ccccc1`, the “activity change, negative = cytotoxicity” value was inactive: -15.8%.
Consider `Nc1cc(N)c2nonc2c1[N+](=O)[O-]`, for which the “activity change, negative = cytotoxicity” value is inactive: -28.1%.
As for `CC(C)CC(=O)NC(Sc1ccc(Cl)cc1)C(Cl)(Cl)Cl` (stereo unspecified), the “activity change, negative = cytotoxicity” value is inactive: -10.4%.
The same measure, in the same setting: then `Oc1ccccc1CNc1ccccn1`, with inactive: 1.09%; and `O=C(NC(Sc1ccncn1)C(Cl)(Cl)Cl)c1ccccc1` (stereo unspecified), with inactive: 0.462%.
On the same count and under the same terms, the result for `COc1ccccc1OP(=O)(Nc1ccc(C)cn1)Oc1ccccc1OC` reads inactive: -8.1%; that for `Cc1ccc(OP(=O)(Nc2nccs2)Oc2ccc(C)cc2)cc1`, inactive: -14.2%; that for `CN1CCCC(OC(=O)C(c2ccccc2)c2ccccc2)C1` (stereo unspecified), inactive: 29%.
In the case of `Clc1ccc(Cl)c(NC2=NCC(CBr)S2)c1` (stereo unspecified), the “activity change, negative = cytotoxicity” value was inactive: 1.06%.
The same measure, in the same setting: the result for `NC(=O)c1cc([N+](=O)[O-])cc([N+](=O)[O-])c1N` reads inactive: -22.7%; that for `CN(C(=O)Cc1ccc(Cl)c(Cl)c1)[C@H]1CCCC[C@H]1N1CCCC1`, inactive: -7.28%.
Still for that read-out and setting: the result for `Cc1ccc(N/C(=N/P(=O)(N2CCOCC2)N2CCOCC2)N2CCOCC2)cc1` reads inactive: 1.28%.
Still for that read-out and setting: then `CC(C)=N/N=C(\N)N[N+](=O)[O-]`, with inactive: -0.161%; and `CN(C)C(=O)OCCc1n(C)cc[n+]1C`, with inactive: -6.33%; and `CC1CCN(C(=O)Oc2c(Cl)cc(Cl)c3cccnc23)CC1`, with inactive: -9.73%.
For the compound `Nc1ccc([As](=O)(O)c2ccc(N)cc2)cc1`, the “activity change, negative = cytotoxicity” value was inactive: 1.7%.
Still for that read-out and setting: the result for `CCN(/C(=N/P(=O)(N1CCOCC1)N1CCOCC1)N1CCOCC1)c1ccc(OC)cc1` reads inactive: 0.463%.
As to `CC1=CC2OC3CC4OC(=O)/C=C/C=CC(C(C)O)OCC(O)C(C)CC(=O)OCC2(CC1O)C4(C)C31CO1` (stereo unspecified), the Potency was active: 146 nM.
Regarding `O=[N+]([O-])c1cccc2n[nH]nc12`, the “activity change, negative = cytotoxicity” value is inactive: -9.29%.
Turning to `CC(=O)N1C2C3N(C(C)=O)C1C1N(C(C)=O)C(C(N1C(C)=O)N3C(C)=O)N2C(C)=O`, the “activity change, negative = cytotoxicity” value was inactive: -9.35%.
The same measure, in the same setting: the result for `Cc1ccc(NP(=O)(Oc2ccccc2)Oc2ccccc2)nc1` reads inactive: -1.3%.
On the same count and under the same terms, then `CCc1nc2c(n1)c1c(non1O)c1c2no[n+]1[O-]`, with inactive: -12.1%; and `O=[N+]([O-])c1cc([N+](=O)[O-])c(CCNc2ccccc2)c([N+](=O)[O-])c1`, with inactive: -12.8%.
Turning to `COc1ccc(C2=NCC(CBr)S2)cc1` (stereo unspecified), the “activity change, negative = cytotoxicity” value was inactive: -18%.
Same read-out and setting: then `COC(=O)C1(C)COP(=O)(Nc2ccccc2)OC1` (stereo unspecified), with inactive: 1.54%.
On the same count and under the same terms, then `O=[N+]([O-])c1cccc(NC2=NCC(CBr)S2)c1` (stereo unspecified), with inactive: 19.9%; and `O=C(O)CNc1ccc([As](=O)(O)O)cc1`, with inactive: -2.6%.
Turning to `CC(C)(C)C(=O)NC(Sc1ccncn1)C(Cl)(Cl)Cl` (stereo unspecified), the “activity change, negative = cytotoxicity” value is inactive: 13.6%.
The same measure, in the same setting: the result for `O=[N+]([O-])c1ncn(CCn2ncnc2[N+](=O)[O-])n1` reads inactive: -0.904%.
With `O=P(/N=c1/nc(-c2ccccc2)n(-c2ccccc2)s1)(Nc1ccccc1)Nc1ccccc1`, the “activity change, negative = cytotoxicity” value was inactive: 4.12%.
Still for that read-out and setting: the result for `O=P1(N(CCCl)CCCl)OCCCS1` (stereo unspecified) reads inactive: 3.55%.
Consider `C(Cc1nn[nH]n1)Cc1nn[nH]n1`, for which the “activity change, negative = cytotoxicity” value was inactive: -2.64%.
Take `Nc1ccc([As](=O)(O)c2ccc([N+](=O)[O-])cc2)cc1`: the “activity change, negative = cytotoxicity” value was inactive: -2.51%.
On the same count and under the same terms, then `O=C(OC1CN2CCC1CC2)c1cccc(Cl)c1` (stereo unspecified), with inactive: -4.27%; and `O=[N+]([O-])c1ccc(O)c(/C=N/Nc2ccc([N+](=O)[O-])cc2[N+](=O)[O-])c1`, with inactive: 4.92%; and `CC(=O)NC(SC(=S)N(C)C)C(Cl)(Cl)Cl` (stereo unspecified), with inactive: 0.198%.
On the same count and under the same terms, the result for `O=[N+]([O-])c1ncn(CCn2cnc([N+](=O)[O-])n2)n1` reads inactive: 6.54%; that for `O=[As](O)(c1ccccc1)c1ccc(O)cc1`, inactive: -0.136%; that for `O=P(Nc1nc2ccccc2s1)(c1ccccc1)c1ccccc1`, inactive: 4.09%.
On the same count and under the same terms, then `C[C@H]1OP(=O)(Oc2ccccc2)[C@H](O)[C@H](O)[C@H]1N=[N+]=[N-]` (stereo partly specified), with inactive: 8.9%.
For `COc1ccc(N)c([N+](=O)[O-])c1[N+](=O)[O-]`, the “activity change, negative = cytotoxicity” value is inactive: -29.3%.
Regarding `O=P(Nc1ccccn1)(c1ccc(Br)cc1)c1ccc(Br)cc1`, the “activity change, negative = cytotoxicity” value was inactive: 2.8%.
The same measure, in the same setting: the result for `CN(C)C1(CNC(=O)c2ccc(Cl)c(S(N)(=O)=O)c2)CCCCC1` reads inactive: 1.89%; that for `c1nnnn1CCn1cnnn1`, inactive: -5.53%; that for `CC(C)C(=O)NC(Sc1ccccc1)C(Cl)(Cl)Cl` (stereo unspecified), inactive: -1.71%.
Still for that read-out and setting: the result for `O=P(Nc1nccs1)(c1ccccc1)c1ccccc1` reads inactive: 4.44%; that for `CC(=O)Nc1ccc([As](=O)(O)O)c(O)c1`, inactive: -1.33%; that for `CC(=O)Nc1ccc(Oc2c([N+](=O)[O-])cc([N+](=O)[O-])cc2[N+](=O)[O-])cc1`, inactive: -15.2%.
The same measure, in the same setting: then `CC(=O)c1ccc(N2CC2c2ccncc2)cc1` (stereo unspecified), with inactive: -1.05%; and `COC(=O)C1(C)COP(=O)(NCc2ccccc2)OC1` (stereo unspecified), with inactive: 0.409%; and `Cc1ccccc1CN(C)C(=O)COC(=O)C(O)(c1ccccc1)c1ccccc1`, with inactive: 20.6%.
For the compound `C[C@H]1OP(=O)(Oc2ccccc2)C[C@@H]2O[C@@H]21` (stereo partly specified), the “activity change, negative = cytotoxicity” value is inactive: 1.08%.
Same read-out and setting: then `C[C@@H]1C=CCP(=O)(Oc2ccccc2)O1` (stereo partly specified), with inactive: -0.669%; and `CCc1cc(O)c([N+](=O)[O-])c(C)c1[N+](=O)[O-]`, with inactive: -8.05%.
Still for that read-out and setting: then `CC(C)(C)C(=O)NC(Sc1ccccc1)C(Cl)(Cl)Cl` (stereo unspecified), with inactive: 9.3%.
For the compound `O=P1(Nc2nc3ccc(Cl)cc3s2)COc2ccccc2O1` (stereo unspecified), the “activity change, negative = cytotoxicity” value is inactive: -4.88%.
Same read-out and setting: then `CCOc1ccc(C2=NCC(CBr)S2)cc1` (stereo unspecified), with inactive: 4.48%; and `CC(NC(=O)COC(=O)C(O)(c1ccccc1)c1ccccc1)c1ccccc1` (stereo unspecified), with inactive: 2.62%.
Take `Cc1ccccc1OP(=O)(Nc1ccccn1)Oc1ccccc1C`: the “activity change, negative = cytotoxicity” value was inactive: -12.6%.
Still for that read-out and setting: then `CN(C)C(=O)Oc1noc2ccccc12`, with inactive: -4.19%; and `COC(=O)c1cc2c(s1)N=C(c1ccccc1)N(C)P2(=O)N1CCOCC1` (stereo unspecified), with inactive: -4.29%.
Still for that read-out and setting: the result for `CC(=O)NC(SC(=S)N(CC(C)C)CC(C)C)C(Cl)(Cl)Cl` (stereo unspecified) reads inactive: 1.37%; that for `Cc1ccc(OP(=O)(Nc2ccccn2)Oc2ccc(C)cc2)cc1`, inactive: -7.18%.
The same measure, in the same setting: then `O=C(OC1CN2CCC1CC2)c1ccccc1` (stereo unspecified), with inactive: 2.37%.
In the case of `CCC(=O)N1C2C3N(C(=O)CC)C1C1N(C(=O)CC)C(C(N1C(=O)CC)N3C(=O)CC)N2C(=O)CC`, the “activity change, negative = cytotoxicity” value was inactive: -9.42%.
On the same count and under the same terms, then `O=P1(N(CCCl)CCCl)OCCC2CCCCN21` (stereo unspecified), with inactive: -5.91%; and `CCNC(=S)/N=C(\N)N[N+](=O)[O-]`, with inactive: -0.393%; and `O=C(NC1CCS(=O)(=O)C1)NP(=S)(Oc1ccccc1)Oc1ccccc1` (stereo unspecified), with inactive: 4.58%.
For the compound `c1ccc(-c2nn[nH]n2)c(-c2nn[nH]n2)c1`, the “activity change, negative = cytotoxicity” value is inactive: -0.0541%.
Same read-out and setting: the result for `Cc1ccc(NP(=O)(Oc2cccc(C)c2)Oc2cccc(C)c2)nc1` reads inactive: -0.935%.
